Structures can show the parent of a compound that is named as a salt.
Columns and labels:
[1] = tested on: paclitaxel-induced neuropathy in C57BL/6 mice; test: von Frey filament test (mechanical) in paclitaxel-induced neuropathy; type: in vivo, mouse
Method: Three behavioral models of paclitaxel-induced neuropathy were used to verify the neuroprotective effect of CN016. Namely, thermal and mechanical nociceptive reactions described below were evaluated by tail immersion and von Frey filament tests, respectively, and motor coordination was assessed with the rotarod performance test (Supporting Information, Figure S1A,B). To mimic the clinical therapeutic regimen, CN016 (5, 10 and 20 mg/kg) was administrated to 7-week-old female C57BL/6 mice by intraperitoneal injection (IP) 1 h prior to each injection of paclitaxel (4.5 mg/kg) on four alternate days (days 1, 3, 5, and 7). Each test’s basal level was recorded before treatment, and additional sessions of behavior tests were performed weekly for five weeks (Figure 4A).
The baseline of every neurological behavior test was measured in 6-week-old C57BL/6J female mice prior to treatment. […] Mechanical hyperalgesia was evaluated by using von Frey filament (#2390, IITC Inc., USA), thermal sensitivity was determined by the tail immersion assay (water temperature: 48–49 °C), and motor coordination was assessed by rotarod (#7750, Ugo Basile Biological Research Apparatus, Italy). After the first drug implantation, the body weight was recorded every 6 days throughout the entire experiment.

[2] = tested on: sciatic nerve fibers; test: Ultrastructure evaluation of the sciatic nerve (TEM); type: in vivo, mouse
From the text: Sciatic nerves were isolated from mice after drug treatment and behavioral tests to examine the ultrastructure of nerve fibers. […] To evaluate the integrity of myelin, we calculated the G-ratio (axon perimeter/myelin perimeter) in different treatment groups. Because the symptoms of PIPN mostly manifest with sensory impairment,[28] we roughly classified nerve fibers into larger fibers (diameter > 5 μm) and small fibers (diameter < 5 μm) depending on the type of sensory information conveyed.[29] Large fibers with greater than 5 μm diameter carry information related to proprioception, touch, and pressure. In contrast, small fibers with less than 5 μm diameter carry information related to temperature and pain.
Sciatic nerve samples from mice from each treatment group were isolated after the last time point of mouse behavioral tests. Fixation of sciatic nerves with 4% glutaraldehyde and post fixation with 1% osmium tetroxide solution at 4 °C were performed. […] Transmission electron microscopy (H7650, Hitachi) was used to observe the ultrastructure in the cross section of the sciatic nerves.

[3] = biological target: T1, CYP 1A2 (Homo sapiens, UniProt P05177); test: Cytochrome P450 testing, CYP 1A2; type: in vitro ADME; conditions: phenacetin O-deethylation; read-out: Concentration of inhibition (IC50), CYP 1A2
T1 construct: host or cells: baculovirus-infected insect cells (supersomes)
From the text: (§1) Cytochrome P450 testing of CN016
(§2) The effects of CN016 on the activity of six specific human liver cytochrome P450 isozymes (CYP 1A2, 2C9, 2C19, 2D6, 2E1, 3A4) expressed in baculovirus-infected insect cell supersomes were studied. The reactions used to measure the activity of these enzymes were phenacetin O-deethylation (1A2), diclofenac 4-hydroxylation (2C9), mephenytoin 4-hydroxylation (2C19), dextromethorphan O-demethylation (2D6), chlorzoxazone 6-hydroxylation (2E1) and testosterone 6-hydroxylation (3A4).
(§3) Furafylline, sulfaphenazole, tranylcypromine, quinidine, diethyldithiocarbamate and azamulin were used as reference inhibitors of these enzymes. Incubation mixtures containing no CN016 or reference inhibitors were used as controls. The tested result […]
(§4) Table S4. Result of Cytochrome P450 testing of CN016

[4] = biological target: T2, CYP 2C19 (Homo sapiens, UniProt P33261); test: Cytochrome P450 testing, CYP 2C19; type: in vitro ADME; conditions: mephenytoin 4-hydroxylation; read-out: Concentration of inhibition (IC50), CYP 2C19
T2 construct: host or cells: baculovirus-infected insect cells (supersomes)
From the text: as §1, §2, §3, §4

[5] = tested on: panel of selected 67 commercially available receptors and enzymes; test: 67 off-target study (LeadProfilingScreen), whole panel; type: binding; conditions: 10 μM
From the text: LeadProfilingScreen (Total # of Assays: 67)
To evaluate, in LeadProfilingScreen, the activity of test compound CN168 (Panlabs # 1251879). […]
Summary of Significant Results
Biochemical assay results are presented as the percent inhibition of specific binding or activity throughout the report.
All other results are expressed in terms of that assay's quantitation method.
• For primary assays, only the lowest concentration with a significant response judged by the assays' criteria, is […]
• Where applicable, either the secondary assay results with the lowest dose/concentration meeting the significance […]
• Unless otherwise requested, primary screening in duplicate with quantitative data (e.g., IC50 ± SEM, Ki ± SEM and nH) are shown where applicable for individual requested assays. In screening packages, primary screening in duplicate with semi-quantitative data (e.g., estimated IC50, Ki and nH) are shown where applicable (concentration range of 4 log units); available secondary functional assays are carried out ([…]) and MEC or MIC determined only if active in primary assays >50% at 1 log unit below initial test concentration. […]

[6] = biological target: Bradykinin B1 (Homo sapiens, UniProt P46663); test: LeadProfilingScreen: Bradykinin B1; type: binding
[7] = biological target: Bradykinin B2 (Homo sapiens, UniProt P30411); test: LeadProfilingScreen: Bradykinin B2; type: binding
[8] = tested on: Calcium Channel L-Type, Benzothiazepine; test: LeadProfilingScreen: Calcium Channel L-Type, Benzothiazepine; type: binding, rat; conditions: 10 μM
[9] = tested on: Calcium Channel L-Type, Dihydropyridine; test: LeadProfilingScreen: Calcium Channel L-Type, Dihydropyridine; type: binding, rat; conditions: 10 μM
[10] = biological target: Calcium Channel N-Type (Rattus norvegicus, UniProt Q02294); test: LeadProfilingScreen: Calcium Channel N-Type; type: binding
[11] = biological target: Dopamine D2S (Homo sapiens, UniProt P14416); test: LeadProfilingScreen: Dopamine D2S; type: binding
[12] = biological target: Dopamine D3 (Homo sapiens, UniProt P35462); test: LeadProfilingScreen: Dopamine D3; type: binding
[13] = biological target: Dopamine D4.4 (Homo sapiens, UniProt P21917); test: LeadProfilingScreen: Dopamine D4.4; type: binding
[14] = tested on: Glutamate, NMDA, Phencyclidine; test: LeadProfilingScreen: Glutamate, NMDA, Phencyclidine; type: binding, rat; conditions: 10 μM
[15] = biological target: Histamine H1 (Homo sapiens, UniProt P35367); test: LeadProfilingScreen: Histamine H1; type: binding
[16] = tested on: Imidazoline I2, Central; test: LeadProfilingScreen: Imidazoline I2, Central; type: binding, rat; conditions: 10 μM
[17] = tested on: Rolipram; test: LeadProfilingScreen: Rolipram; type: binding, rat; conditions: 10 μM

O=P(O)(O)CCN1CCC(Nc2cc(N3CCOCC3)nc(NCc3cn(CCCO)nn3)n2)CC1 [CN016, {2-[4-(2-{[1-(3-Hydroxy-propyl)-1H-[1,2,3]triazol-4-ylmethyl]-amino}-6-morpholin-4-yl-pyrimidin-4-ylamino)-piperidin-1-yl]-ethyl}-phosphonic Acid Hydrobromide Salt]
alleviation of mechanical allodynia (von Frey) ([1]; CN016 5 mg/kg IP 1 h prior to paclitaxel 4.5 mg/kg): only moderately alleviated | alleviation of paclitaxel-induced mechanical allodynia (von Frey) ([1]; CN016 10 or 20 mg/kg IP 1 h prior to paclitaxel 4.5 mg/kg): able to alleviate | myelinated fiber density of sciatic nerve (restoration of fiber loss) ([2]; dose-dependent, particularly at 20 mg/kg): significantly restored | integrity of large fibers (diameter > 5 μm) of sciatic nerve ([2]; paclitaxel with pretreated CN016 5, 10 and 20 mg/kg): did not affect the integrity of large fibers | G-ratio in small fibers (diameter < 5 μm) of sciatic nerve ([2]; pretreated, particularly at 10 or 20 mg/kg, paclitaxel-treated mice): could rescue the observed axonal damage | proportion of atypical mitochondria in sciatic nerve ([2]; pretreatment, paclitaxel-treated mice): significantly decreased | IC50 [3]: > 100 µM | IC50 [4]: > 100 µM | Significant responses (≥ 50% inhibition or stimulation) in the primary assays [5]: No significant results noted | inhibitory activity for each tested item of the 67 panel [5]: < 20% | inhibition at 10 µM [6]: -10% | inhibition at 10 µM [7]: -4% | Inhibition (%), Calcium Channel L-Type, Benzothiazepine [8]: -13% | Inhibition (%), Calcium Channel L-Type, Dihydropyridine [9]: 14% | inhibition at 10 µM [10]: 1% | inhibition at 10 µM [11]: 3% | inhibition at 10 µM [12]: -3% | inhibition at 10 µM [13]: 12% | Inhibition (%), Glutamate, NMDA, Phencyclidine [14]: -4% | inhibition at 10 µM [15]: 19% | Inhibition (%), Imidazoline I2, Central [16]: -5% | Inhibition (%), Rolipram [17]: 6%

— PMC8958505, “Discovery of Potential Neuroprotective Agents against Paclitaxel-Induced Peripheral Neuropathy” (Journal of Medicinal Chemistry, 2022)
